In assay [1] the test system is Ctx^R cell lines (BxPC-3, PANC-1 and SW1990). Kind of assay: MTT cell viability after Ctx treatment of integrin β1 siRNA-treated cells. The following applies: integrin β1 siRNA 100 nM; Ctx 2 μM, 48 hours. Format: cell-based.
In another assay the test system is HCC44. In words: WST-1 cell viability, Ctx in combination with PI3K-Akt, Src or Raf inhibitor. The following applies: 48 hours. Type of assay: cell-based. (In general: Tetrazolium dyes change colour on reduction, which living cells bring about.)
A further assay deals with BxPC-3. In words: Annexin V-FITC apoptosis assay (FACS). The following applies: BxPC-3 (Ctx^R); 4 μM, 48 hours.
In a further assay the test system is Ctx^R PANC-1 xenograft. Kind of assay: In vivo tumor growth inhibition, xenograft. To be noted: intravenous, compared to the control PBS.
Another assay relates to PANC-1. In words: MTT cell proliferation assay.
Another assay has as its system SW1990. In words: MTT cell proliferation assay. To be noted: SW1990 pancreatic cancer cell line.

cetuximab [Ctx]: the “resistance to Ctx (cell viability) when integrin β1 expression is inhibited” value in assay [1] was “could overcome resistance to Ctx”. In the assay with HCC44 (5, 2 and 1 μM SU6656 with 2 μM Ctx), the “resistance to Ctx when phosphorylation of Src is inhibited” value is given as “could overcome resistance to Ctx”. The “resistance to Ctx when phosphorylation of Raf is inhibited” value in the assay with HCC44 (5, 2 and 1 μM sorafenib with 2 μM Ctx) was “could not overcome resistance to Ctx”. Besides, the “resistance to Ctx when phosphorylation of Akt is inhibited” value in the assay on HCC44 (50, 20 and 10 μM LY294002 with 2 μM Ctx) is recorded as “could overcome resistance to Ctx”. In addition, the “apoptosis (annexin V-FITC)” value in the assay on BxPC-3 is reported as “induced apoptosis, unlike Ctx”. Moreover, the “tumor growth (tumor volume, tumor weight)” value with Ctx^R PANC-1 xenograft is listed as “showed resistance”. In the assay with PANC-1 (PANC-1 (Ctx^R), 0, 1, 2, 4 μM twice at 48-hour intervals, total 96 hours), the “cell growth inhibition (MTT)” value is given as “showed cell growth inhibition, unlike Ctx”. The “Responsiveness to Cetuximab” value with PANC-1 (PANC-1 pancreatic cancer cell line) and with SW1990 was “Resistant” throughout.

Source of the values: US11548915B2, “Composition for overcoming resistance to EGFR-targeting agent” (Pinetree Therapeutics, Inc., priority 2016, dated 2023).
